Test results: ChEMBL document CHEMBL3727343, “Agent for inhibiting odor of pyrazine derivatives” (2013)

Target: T1, Olfactory receptor 5K1 (Homo sapiens) (UniProt Q8NHB7)
T1 sequence (whole entry): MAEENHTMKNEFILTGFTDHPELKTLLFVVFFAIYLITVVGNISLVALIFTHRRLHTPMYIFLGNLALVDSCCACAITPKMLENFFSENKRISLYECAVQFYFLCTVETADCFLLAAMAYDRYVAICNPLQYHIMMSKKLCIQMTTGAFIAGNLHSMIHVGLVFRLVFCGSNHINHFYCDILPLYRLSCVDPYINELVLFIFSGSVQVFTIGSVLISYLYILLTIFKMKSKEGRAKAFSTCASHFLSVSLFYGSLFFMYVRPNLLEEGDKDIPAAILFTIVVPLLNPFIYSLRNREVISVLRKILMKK
Assay: Antagonist activity at human OR5K1 expressed in HEK293 cells assessed as inhibition of 2,6-dimethylpyrazine-induced response at 100 uM by luciferase reporter gene assay
Assay type: functional, cell-based

inhibition: > 75%
SMILES: CC(=O)/C=C/C1C(C)=CCCC1(C)C (stereo unspecified)
